Laboratory results reported in paper PMC11470957, “Principles of paralog-specific targeted protein degradation engaging the C-degron E3 KLHDC2” (Nature Communications, 2024).
Several values for one entry are separate records, joined by “and”; a condition that tells them apart may be missing. Equal values may be shown once. Read-outs that look alike come from different tables or passages of the source.

Sequences of proteins named here, by UniProt entry; tags and fusion partners are left off. Residues count along the entry.
UniProt Q15059, 306-416: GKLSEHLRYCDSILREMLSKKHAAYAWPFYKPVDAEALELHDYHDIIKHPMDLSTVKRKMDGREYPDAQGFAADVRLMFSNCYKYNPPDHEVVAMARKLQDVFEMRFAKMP
UniProt Q15059, whole entry: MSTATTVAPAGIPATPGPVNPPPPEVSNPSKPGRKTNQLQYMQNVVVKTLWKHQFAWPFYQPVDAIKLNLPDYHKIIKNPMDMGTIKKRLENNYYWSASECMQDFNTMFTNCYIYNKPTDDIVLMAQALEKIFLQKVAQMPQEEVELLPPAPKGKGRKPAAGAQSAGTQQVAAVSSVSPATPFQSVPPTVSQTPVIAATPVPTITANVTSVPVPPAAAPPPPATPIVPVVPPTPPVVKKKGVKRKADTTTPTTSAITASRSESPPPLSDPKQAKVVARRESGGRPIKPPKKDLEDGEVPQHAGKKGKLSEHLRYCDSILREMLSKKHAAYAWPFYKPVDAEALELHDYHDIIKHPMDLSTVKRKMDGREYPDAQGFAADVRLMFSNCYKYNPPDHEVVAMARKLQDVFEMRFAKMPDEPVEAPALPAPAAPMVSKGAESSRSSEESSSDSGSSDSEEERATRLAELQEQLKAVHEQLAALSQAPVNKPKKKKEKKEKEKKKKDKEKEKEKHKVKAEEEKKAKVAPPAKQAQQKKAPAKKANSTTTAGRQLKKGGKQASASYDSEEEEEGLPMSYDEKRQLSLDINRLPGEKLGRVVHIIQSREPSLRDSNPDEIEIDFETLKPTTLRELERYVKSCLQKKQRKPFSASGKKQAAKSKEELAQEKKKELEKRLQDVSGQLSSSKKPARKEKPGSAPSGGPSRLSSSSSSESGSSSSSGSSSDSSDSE
UniProt P25440, 344-455: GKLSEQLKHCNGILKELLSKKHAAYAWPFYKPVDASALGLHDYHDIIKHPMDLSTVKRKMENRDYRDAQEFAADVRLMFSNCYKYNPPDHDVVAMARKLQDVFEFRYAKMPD
UniProt P25440, whole entry: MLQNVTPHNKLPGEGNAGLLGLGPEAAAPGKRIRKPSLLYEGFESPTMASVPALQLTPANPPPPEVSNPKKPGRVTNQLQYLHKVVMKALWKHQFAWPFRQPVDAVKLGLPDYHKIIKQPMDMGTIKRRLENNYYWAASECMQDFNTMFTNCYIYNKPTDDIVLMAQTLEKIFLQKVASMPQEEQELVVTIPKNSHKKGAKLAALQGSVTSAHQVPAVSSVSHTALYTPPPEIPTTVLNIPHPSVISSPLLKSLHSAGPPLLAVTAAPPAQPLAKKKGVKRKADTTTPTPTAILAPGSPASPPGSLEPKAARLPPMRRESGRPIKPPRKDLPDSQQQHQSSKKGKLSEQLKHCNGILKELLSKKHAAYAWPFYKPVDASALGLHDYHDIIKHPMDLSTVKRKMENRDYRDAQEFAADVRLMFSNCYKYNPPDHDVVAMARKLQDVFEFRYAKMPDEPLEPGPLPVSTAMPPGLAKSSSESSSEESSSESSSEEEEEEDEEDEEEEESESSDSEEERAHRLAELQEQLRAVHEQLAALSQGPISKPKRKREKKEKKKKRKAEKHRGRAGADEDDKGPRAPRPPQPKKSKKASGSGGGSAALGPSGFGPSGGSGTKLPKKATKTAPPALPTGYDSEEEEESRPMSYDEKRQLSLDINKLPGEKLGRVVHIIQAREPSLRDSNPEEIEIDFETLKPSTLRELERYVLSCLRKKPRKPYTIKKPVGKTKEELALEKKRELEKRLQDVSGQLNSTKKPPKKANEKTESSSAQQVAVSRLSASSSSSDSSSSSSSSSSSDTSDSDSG
UniProt P25440, 344-455 G382E: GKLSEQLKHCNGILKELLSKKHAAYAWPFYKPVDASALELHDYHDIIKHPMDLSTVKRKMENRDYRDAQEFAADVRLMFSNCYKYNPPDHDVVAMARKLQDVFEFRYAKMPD

Key:
[1] = target: T1, neddylated CRL2^KLHDC2 / BRD3^BD2 (Homo sapiens, UniProt Q15059+Q9Y2U9, Q9Y2U9:G405K/Q9Y2U9:S406K)
[2] = target: neddylated CRL2^KLHDC2 (Homo sapiens, UniProt Q9Y2U9, G405K/S406K); conditions: Fig4c source
[3] = system: KLHDC2, KLHDC3, KLHDC10, KLHDC1 E3 ligases
[4] = target: T1, neddylated CRL2^KLHDC2 / BRD3^BD2; assay: biochemical
[5] = target: BRD2^BD2 (Homo sapiens, UniProt P25440); assay: ITC, binary binding to BRD2^BD2; conditions: ITC source data Fig4a; syringe BRD2BD2, cell SJ46421
[6] = target: BRD3^BD2 (Homo sapiens, UniProt Q15059); assay: ITC, binary binding to BRD3^BD2; conditions: ITC source data Fig4a; syringe BRD3BD2, cell SJ46421
[7] = target: BRD2 (Homo sapiens, UniProt P25440); assay: Western blot of BRD2 levels after cellular dosing; conditions: 24 h
[8] = target: BRD3 (Homo sapiens, UniProt Q15059); assay: Western blot of BRD3 levels after cellular dosing; conditions: 24 h
[9] = target: BRD4 (Homo sapiens, UniProt O60885); assay: Western blot of BRD4 levels after cellular dosing; conditions: 24 h
[10] = target: T2, KLHDC2 (Homo sapiens, UniProt Q9Y2U9); assay: Western blot of KLHDC2 levels after cellular dosing; conditions: 24 h
T2 sequence (Q9Y2U9 1-406): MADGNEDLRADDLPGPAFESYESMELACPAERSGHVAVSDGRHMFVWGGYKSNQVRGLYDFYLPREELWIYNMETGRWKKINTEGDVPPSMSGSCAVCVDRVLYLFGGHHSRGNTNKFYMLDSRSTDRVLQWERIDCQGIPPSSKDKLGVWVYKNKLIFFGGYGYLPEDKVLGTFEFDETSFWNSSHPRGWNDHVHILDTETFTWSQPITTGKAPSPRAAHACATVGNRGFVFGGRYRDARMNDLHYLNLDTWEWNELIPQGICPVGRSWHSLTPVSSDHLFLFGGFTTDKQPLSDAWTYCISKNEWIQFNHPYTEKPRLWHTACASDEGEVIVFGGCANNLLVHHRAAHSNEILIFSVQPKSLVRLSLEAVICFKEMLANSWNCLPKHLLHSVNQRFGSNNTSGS

[11] = target: KLHDC2^SBD / BRD2^BD2 (Homo sapiens, UniProt P25440+Q9Y2U9); assay: ITC, ternary complex KLHDC2^SBD with PROTAC-BRD2^BD2
[12] = target: KLHDC2^SBD / G382E BRD2^BD2 (Homo sapiens, UniProt P25440+Q9Y2U9, G382E); assay: ITC, ternary complex KLHDC2^SBD with PROTAC-G382E BRD2^BD2; conditions: ITC source data Fig4f; syringe KLHDC2, cell SJ46421-G382EBRD2BD2
[13] = system: CUL2^KLHDC2, CUL2^KLHDC3, CUL2^KLHDC10, CUL5^KLHDC1; assay: SJ46421-dependent BRD^BD2 ubiquitylation by KLHDC-family CRLs (E3 selectivity); conditions: neo-substrate ubiquitylation
[14] = target: neddylated CRL2^KLHDC2 (tetrameric KLHDC2-EloB/C) (Homo sapiens, UniProt Q15059+Q9Y2U9); assay: Ubiquitylation assay monitoring disruption of the KLHDC2-EloBC tetrameric assembly
[15] = Fig3g source, 1:1 PROTAC:BRD3^BD2 0.0625 uM
[16] = Fig3g source, 1:1 PROTAC:BRD3^BD2 0.125 uM
[17] = Fig3g source, 1:1 PROTAC:BRD3^BD2 0.25 uM
[18] = Fig3g source, 1:1 PROTAC:BRD3^BD2 0.5 uM
[19] = Fig3g source, 1:1 PROTAC:BRD3^BD2 1 uM
[20] = Fig4c source, PROTAC-BRD3BD2 0.005 uM
[21] = Fig4c source, PROTAC-BRD3BD2 0.01 uM
[22] = Fig4c source, PROTAC-BRD3BD2 0.04 uM
[23] = Fig4c source, PROTAC-BRD3BD2 0.37 uM
[24] = Fig4c source, PROTAC-BRD3BD2 1.1 uM
[25] = Fig4c source, PROTAC-BRD3BD2 3.3 uM
[26] = Fig4c source, PROTAC-BRD3BD2 10 uM
[27] = U2OS DC2KO (KLHDC2 knockout), 5µM, Fig 6b

Cc1sc2c(c1C)C(c1ccc(Cl)cc1)=N[C@@H](CC(=O)N1CCN(CCOc3cccc4ccc(-c5nc(CC(=O)NCC(=O)O)cs5)cc34)CC1)c1nnc(C)n1-2 [SJ46421]
diGly substrate ubiquitylation remaining (0 uM = 100), Rep1/Rep2 [1, 15]: 31.1086 and 36.9335
diGly substrate ubiquitylation remaining (0 uM = 100), Rep1/Rep2 [1, 16]: 12.577 and 12.207
diGly substrate ubiquitylation remaining (0 uM = 100), Rep1/Rep2 [1, 17]: 5.502 and 5.266
diGly substrate ubiquitylation remaining (0 uM = 100), Rep1/Rep2 [1, 18]: 4.738 and 3.146
diGly substrate ubiquitylation remaining (0 uM = 100), Rep1/Rep2 [1, 19]: 4.176 and 3.599
diGly substrate ubiquitylation remaining (0 uM = 100), Rep1/Rep2 [1, 20]: 81.2598 and 77.4379
diGly substrate ubiquitylation remaining (0 uM = 100), Rep1/Rep2 [1, 21]: 35.6946 and 31.5513
diGly substrate ubiquitylation remaining (0 uM = 100), Rep1/Rep2 [1, 22]: 4.4 and 4.403
diGly substrate ubiquitylation remaining (0 uM = 100), Rep1/Rep2 [1, 23]: 2.657 and 1.959
diGly substrate ubiquitylation remaining (0 uM = 100), Rep1/Rep2 [1, 24]: 1.575 and 1.863
diGly substrate ubiquitylation remaining (0 uM = 100), Rep1/Rep2 [1, 25]: 1.575 and 3.083
diGly substrate ubiquitylation remaining (0 uM = 100), Rep1/Rep2 [1, 26]: 2.138 and 1.673
diGly substrate ubiquitylation remaining (0 uM = 100), Rep1/Rep2 ([2]; PROTAC alone 0.005 uM): 101.067 and 100
diGly substrate ubiquitylation remaining (0 uM = 100), Rep1/Rep2 ([2]; PROTAC alone 0.01 uM): 100.794 and 94.7859
diGly substrate ubiquitylation remaining (0 uM = 100), Rep1/Rep2 ([2]; PROTAC alone 0.04 uM): 85.5112 and 80.6034
diGly substrate ubiquitylation remaining (0 uM = 100), Rep1/Rep2 ([2]; PROTAC alone 0.37 uM): 80.1665 and 69.9122
diGly substrate ubiquitylation remaining (0 uM = 100), Rep1/Rep2 ([2]; PROTAC alone 1.1 uM): 63.0506 and 54.9804
diGly substrate ubiquitylation remaining (0 uM = 100), Rep1/Rep2 ([2]; PROTAC alone 3.3 uM): 24.4113 and 17.9182
diGly substrate ubiquitylation remaining (0 uM = 100), Rep1/Rep2 ([2]; PROTAC alone 10 uM): 16.8304 and 9.612
selectivity toward KLHDC2 over KLHDC10 [3]: ~ 40 fold
Ki [4]: 0.00784 µM
(-)TDS, Rep1/Rep2 [5]: 2.71 and 2.54
(-)TDS, Rep1/Rep2 [6]: 5.34 and 5
BRD2 level relative to DMSO (100%) ([7]; 293T, 2.5µM, Fig S6a): 80 +/- 11%
BRD2 level relative to DMSO (100%) ([7]; 293T, 5µM, Fig S6a): 80 +/- 6.7%
BRD2 level relative to DMSO (100%) ([7]; MDA-MB-468, 10µM, Fig S6b): 72 +/- 14%
BRD2 level relative to DMSO (100%) [7, 27]: 107 +/- 7.3%
BRD2 level relative to DMSO (100%) ([7]; U2OS, 5µM, Fig 6b): 127 +/- 13%
BRD3 level relative to DMSO (100%) ([8]; 293T, 2.5µM, Fig S6a): 82 +/- 5.3%
BRD3 level relative to DMSO (100%) ([8]; 293T, 5µM, Fig S6a): 78 +/- 7.4%
BRD3 level relative to DMSO (100%) ([8]; MDA-MB-468, 10µM, Fig S6b): 71 +/- 15%
BRD3 level relative to DMSO (100%) [8, 27]: 103 +/- 5.6%
BRD4 level relative to DMSO (100%) ([9]; 293T, 2.5µM, Fig S6a): 102 +/- 5.9%
BRD4 level relative to DMSO (100%) ([9]; 293T, 5µM, Fig S6a): 92 +/- 9.1%
BRD4 level relative to DMSO (100%) ([9]; MDA-MB-468, 10µM, Fig S6b): 96 +/- 3.5%
BRD4 level relative to DMSO (100%) [9, 27]: 101 +/- 17%
BRD4 level relative to DMSO (100%) ([9]; U2OS, 5µM, Fig 6b): 111 +/- 11%
KLHDC2 level relative to DMSO (100%) ([10]; 293T, 2.5µM, Fig S6a): 105 +/- 5.2%
KLHDC2 level relative to DMSO (100%) ([10]; 293T, 5µM, Fig S6a): 107 +/- 6.8%
KLHDC2 level relative to DMSO (100%) ([10]; MDA-MB-468, 10µM, Fig S6b): 124 +/- 6.7%
KLHDC2 level relative to DMSO (100%) [10, 27]: 0 +/- 0%
cooperativity α = Kd(Binary)/Kd(Ternary) [11]: 1.4
(-)TDS, Rep1/Rep2 [12]: 0.62 and 0.68
selectivity for KLHDC2 over other KLHDC-family CRLs [13]: greater than two orders-of-magnitude
BRD3~UB level, Rep1/Rep2 ([14]; Monomer, + BRD3-SJ46421, pre-incubation 0): 100
BRD3~UB level, Rep1/Rep2 ([14]; Tetramer, + BRD3-SJ46421, pre-incubation 0): 55.3818 and 61.132
BRD3~UB level, Rep1/Rep2 ([14]; Tetramer, + BRD3-SJ46421, pre-incubation 2): 98.4918 and 103.234
BRD3~UB level, Rep1/Rep2 ([14]; Tetramer, + BRD3-SJ46421, pre-incubation 5): 99.3472 and 103.232
shift of ubiquitin targeting from KLHDC2 to BRD3^BD2 ([14]; pre-incubation with SJ46421-BRD3^BD2 for as little as two minutes): complete switch in ubiquitin targeting to BRD3^BD2

Cc1sc2c(c1C)C(c1ccc(Cl)cc1)=N[C@@H](CC(=O)N1CCN(CCOc3ccc4ccc(-c5nc(CC(=O)NCC(=O)O)cs5)cc4c3)CC1)c1nnc(C)n1-2 [SJ46423]
diGly substrate ubiquitylation remaining (0 uM = 100), Rep1/Rep2 [1, 15]: 88.9579 and 87.2342
diGly substrate ubiquitylation remaining (0 uM = 100), Rep1/Rep2 [1, 16]: 83.5543 and 79.7327
diGly substrate ubiquitylation remaining (0 uM = 100), Rep1/Rep2 [1, 17]: 77.3497 and 75.2985
diGly substrate ubiquitylation remaining (0 uM = 100), Rep1/Rep2 [1, 18]: 70.6159 and 68.2842
diGly substrate ubiquitylation remaining (0 uM = 100), Rep1/Rep2 [1, 19]: 59.8368 and 55.2835
diGly substrate ubiquitylation remaining (0 uM = 100), Rep1/Rep2 ([1]; Fig3g source, 1:1 PROTAC:BRD3^BD2 2 uM): 48.1841 and 49.2421
diGly substrate ubiquitylation remaining (0 uM = 100), Rep1/Rep2 [1, 20]: 103.037 and 109.197
diGly substrate ubiquitylation remaining (0 uM = 100), Rep1/Rep2 [1, 21]: 100.025 and 100.853
diGly substrate ubiquitylation remaining (0 uM = 100), Rep1/Rep2 [1, 22]: 82.1957 and 85.1933
diGly substrate ubiquitylation remaining (0 uM = 100), Rep1/Rep2 [1, 23]: 68.9683 and 76.8326
diGly substrate ubiquitylation remaining (0 uM = 100), Rep1/Rep2 [1, 24]: 37.6292 and 52.498
diGly substrate ubiquitylation remaining (0 uM = 100), Rep1/Rep2 [1, 25]: 16.5064 and 26.7706
diGly substrate ubiquitylation remaining (0 uM = 100), Rep1/Rep2 [1, 26]: 8.538 and 13.7087
enhancement of the IC50, ternary complex vs ligand alone ([1]; with BRD3^BD2 vs alone): ~ 7 fold
diGly substrate ubiquitylation remaining (0 uM = 100), Rep1/Rep2 ([2]; PROTAC alone 0.005 uM): 102.475 and 100
diGly substrate ubiquitylation remaining (0 uM = 100), Rep1/Rep2 ([2]; PROTAC alone 0.01 uM): 102.64 and 108.67
diGly substrate ubiquitylation remaining (0 uM = 100), Rep1/Rep2 ([2]; PROTAC alone 0.04 uM): 101.626 and 95.1143
diGly substrate ubiquitylation remaining (0 uM = 100), Rep1/Rep2 ([2]; PROTAC alone 0.37 uM): 102.536 and 100.616
diGly substrate ubiquitylation remaining (0 uM = 100), Rep1/Rep2 ([2]; PROTAC alone 1.1 uM): 84.0203 and 84.5553
diGly substrate ubiquitylation remaining (0 uM = 100), Rep1/Rep2 ([2]; PROTAC alone 3.3 uM): 76.072 and 79.4906
diGly substrate ubiquitylation remaining (0 uM = 100), Rep1/Rep2 ([2]; PROTAC alone 10 uM): 43.3492 and 46.6583
Ki [4]: 0.61 µM
